Consider four molecules from paper PMC9555309, “Improvement of native structure-based peptides as efficient inhibitors of protein-protein interactions of SARS-CoV-2 spike protein and human ACE2” (Frontiers in Molecular Biosciences, 2022).

The assay addresses RBD domain of the SARS-CoV-2 S protein (Severe acute respiratory syndrome coronavirus 2, UniProt P0DTC2). Put plainly: biochemical. Format: binding.

The Kd is the free concentration of one partner at which half of the binding sites on the other are occupied at equilibrium, for simple one-to-one binding. Low values mean higher affinity, high ones lower affinity. On to `NC(=O)C[C@H](NC(=O)CNC(=O)[C@H](Cc1ccc(O)cc1)NC(=O)[C@@H](N)CC(=O)O)C(=O)N[C@@H](Cc1c[nH]cn1)C(=O)N[C@@H](CCC(=O)O)C(=O)O` [J3, DYGNHE], for which binding (KD Tmeasur. 22°C) was put at a Kd of 42 ± 8 nM.

Consider `CSCC[C@H](N)C(=O)N[C@@H](Cc1ccc(O)cc1)C(=O)NCC(=O)N[C@@H](CC(N)=O)C(=O)N[C@@H](Cc1c[nH]cn1)C(=O)N[C@@H](CCC(=O)O)C(=O)O` [J3.2, MYGNHE], for which the Kd came out at 83 ± 20 nM (KD Tmeasur. 22°C) and 98 ± 24 nM (KD Tmeasur. 25°C). Molecule `NC(=O)C[C@H](NC(=O)CNC(=O)[C@H](Cc1ccc(O)cc1)NC(=O)[C@@H](N)CC(=O)O)C(=O)N[C@@H](Cc1ccc(O)cc1)C(=O)N[C@@H](CCC(=O)O)C(=O)O` [J3.1, DYGNYE] registered a Kd (KD Tmeasur. 22°C) of 121 ± 37 nM and a Kd (KD Tmeasur. 25°C) of 142 ± 43 nM.

For `CC(C)C[C@H](N)C(=O)N[C@@H](Cc1ccc(O)cc1)C(=O)NCC(=O)N[C@@H](CC(N)=O)C(=O)N[C@@H](Cc1c[nH]cn1)C(=O)N[C@@H](CCC(=O)O)C(=O)O` [J3.3, LYGNHE], the Kd was 162 ± 23 nM (KD Tmeasur. 22°C) and 190 ± 26 nM (KD Tmeasur. 25°C).
